Structures are written as SMILES.

Here are results for one compound from ChEMBL document CHEMBL4837227, “Discovery and development of 2-aminobenzimidazoles as potent antimalarials” (Eur J Med Chem, 2021).

A short description of the assay: Selectivity index, ratio of IC50 for antimalarial activity against Plasmodium falciparum Dd2 to IC50 of antimalarial activity against Plasmodium falciparum 3D7. It is filed as functional.

In the case of `C[C@H]1[C@H](OC(=O)CCC(=O)O)O[C@@H]2O[C@@]3(C)CC[C@H]4[C@H](C)CC[C@@H]1[C@@]24OO3`, the Ratio IC50 came to 1.4.
